Assay results published in patent US6664231B1, “Anti-fungal peptides” (priority 1993, dated 2003).
Read-outs that look alike come from different tables or passages of the source.

Legend:
[1] = tested on: C. albicans (CA-1, Strain SLU-1); assay: Radial diffusion assay; type: cell-based, Candida albicans; conditions: for Plate Assay (nmol), pure peptide activity: HPLC-purified peptide; for Plate Assay (nmol), pure peptide activity / Plate Assay (nmol), crude peptide activity: nanomoles required to achieve a net 30 mm^2 zone (log titration curve); for C. albicans pmol/30 mm^2 zone: pmoles of peptide added to well to achieve a 30 mm^2 zone, PROBIT analysis, crude or purified (P′) peptide
Procedure: In the radial diffusion assay procedures, the CA-1 cultures and peptide solutions were prepared as in the broth assay procedure described above. Ten mL of molten underlayer agarose comprising 3% Sabouraud Dextrose broth, 1% agarose (Pharmacia, Piscataway, N.J.), 0.02% Tween 20, and 10 mM sodium phosphate at pH 7.4, was added to polystyrene tubes and maintained in a 56° C. water bath until the addition of yeast. Tubes were cooled to approximately 45° C., yeast were added to give a final concentration of 1×10^6 CFU/mL, and the tubes were mixed again by inverting. The contents were poured into level square petri dishes and distributed evenly. […] A series of wells were punched into the hardened agarose using a sterile 3 mm punch attached to a vacuum apparatus.
Peptides to be assayed were 2-fold serially diluted in Dulbecco's PBS (D-PBS) starting from a concentration of approximately 1 mg/mL. Five μL of each dilution were added to each well and the plates were incubated at 37° C. for 3 hours. An overlayer of 10 mL of molten agarose comprising 6% Sabouraud Dextrose broth, 1% agarose, and 10 mM sodium phosphate, pH 7.4, (at approximately 45° C.) was then added and plates were incubated overnight at 37° C. Following this overnight incubation, a dilute Coomassie solution was poured into the plates and allowed to stain for 24 hours.
Clear zones of growth inhibition around each well were measured with calipers. The actual area of growth inhibition (mm^2) was calculated by subtracting the area of the well. Table 1 below sets out the results of the radial diffusion assays for tested peptides in terms of the number of picomoles (pmol) of peptide required to establish a 30 mm^2 area of growth inhibition calculated by PROBIT analysis (e.g., calculated from regression of the linear portion of log-concentration dose-response curve, log pmol/well vs. net area of inhibition).

[2] = tested on: mouse RAW 264.7 cells incubated with E. coli O113 LPS; conditions: RAW 264.7 cells with E. coli O113 LPS; concentration reversing LPS growth inhibition by 50%
Procedure: (§1) An in vitro LPS neutralization screening assay for evaluation of Domain III derived peptides was developed (as described in co-owned and co-pending U.S. patent application Ser. No. 08/306,473) which provides both a measure of efficacy of each peptide (EC50) and of the toxicity/growth inhibition of each peptide (IC50).
(§2) The cells were counted and their concentration adjusted to 2×10^5 cells/mL and 100 μL aliquots were added to each well of a 96-well microtitre plate. […] This incubation was performed in the absence or presence of peptides in varying concentrations between 25 ng/mL and 50 μg/mL. […] Cell proliferation was quantitatively measured by the addition of 1 μCi/well [^3H]-thymidine 5 hours after the time of initiation of the assay. After the 15-hour incubation, labeled cells were harvested onto glass fiber filters with a cell harvester (Inotech Biosystems, INB-384, Sample Processing and Filter Counting System, Lansing, Mich.).

mouse RAW 264.7 cells = tested on: mouse RAW 264.7 cells
Procedure: as §1, §2

[3] = RAW 264.7 cell growth inhibited by 50%

| SMILES | In Vitro LPS Neutralization EC50 [2] | IC50 (toxicity/growth inhibition of peptide) (mouse RAW 264.7 cells; [3]) | also measured |
| --- | --- | --- | --- |
| CC[C@H](C)[C@H](NC(=O)[C@H](CC(C)C)NC(=O)[C@H](Cc1c[nH]c2ccccc12)NC(=O)[C@H](CCCCN)NC(=O)[C@@H](NC(=O)[C@H](CCCCN)NC(=O)[C@H](CO)NC(=O)[C@@H](N)CCCCN)C(C)C)C(=O)N[C@@H](CCC(N)=O)C(=O)N[C@@H](CC(C)C)C(=O)N[C@@H](Cc1ccccc1)C(=O)N[C@@H](Cc1c[nH]cn1)C(=O)N[C@@H](CCCCN)C(=O)N[C@@H](CCCCN)C(N)=O [Peptide 97] | – | – | Plate Assay (nmol), pure peptide activity [1]: 0.304 nmol; Plate Assay (nmol), crude peptide activity [1]: 0.701 nmol |
| CC[C@H](C)[C@H](NC(=O)[C@H](CC(C)C)NC(=O)[C@H](Cc1c[nH]c2ccccc12)NC(=O)[C@H](CCCCN)NC(=O)[C@@H](NC(=O)[C@@H](N)CCCCN)C(C)C)C(=O)N[C@@H](CCC(N)=O)C(=O)N[C@@H](CC(C)C)C(=O)N[C@@H](Cc1ccccc1)C(=O)N[C@@H](Cc1c[nH]cn1)C(=O)N[C@@H](CCCCN)C(=O)N[C@@H](CCCCN)C(N)=O [Peptide 286] | – | – | Plate Assay (nmol), pure peptide activity [1]: 0.253 nmol; Plate Assay (nmol), crude peptide activity [1]: 1.216 nmol |
| CC[C@H](C)[C@H](NC(=O)[C@H](CC(C)C)NC(=O)[C@H](Cc1c[nH]c2ccccc12)NC(=O)[C@@H](CCCCN)NC(=O)[C@H](N)CCCCN)C(=O)N[C@@H](CCC(N)=O)C(=O)N[C@@H](CC(C)C)C(=O)N[C@H](CCCCN)C(=O)N[C@H](CCCCN)C(N)=O [XMP.342P] | NA (NA for EC50 means no evidence neutralization of LPS at up to 50 μg/ml) | NA (NA for IC50 means no evidence of decreased RAW cell growth at up to 50 μg/ml) | – |
| CC[C@H](C)[C@H](NC(=O)[C@H](CC(C)C)NC(=O)[C@H](Cc1c[nH]c2ccccc12)NC(=O)[C@@H]1CCCN1)C(=O)N[C@@H](CCC(N)=O)C(=O)N[C@@H](CC(C)C)C(=O)N[C@@H](Cc1ccccc1)C(=O)N[C@@H](Cc1c[nH]cn1)C(=O)N[C@@H](CCCCN)C(=O)N[C@@H](CCCCN)C(=O)O [XMP.353P] | 4.42 ± 0.56 µg/mL | NA (NA for IC50 means no evidence of decreased RAW cell growth at up to 50 μg/ml) | – |
| CC[C@@H](C)[C@@H](NC(=O)[C@@H](CC(C)C)NC(=O)[C@@H](Cc1c[nH]c2ccccc12)NC(=O)[C@H](N)CCCCN)C(=O)N[C@H](CCC(N)=O)C(=O)N[C@H](CC(C)C)C(=O)N[C@H](Cc1ccccc1)C(=O)N[C@H](Cc1c[nH]cn1)C(=O)N[C@H](CCCCN)C(=O)N[C@H](CCCCN)C(N)=O [XMP.365P] | 0.52 ± 0.07 µg/mL | – | IC50 (toxicity/growth inhibition of peptide) (mouse RAW 264.7 cells): >25 µg/mL |
| CC[C@@H](C)[C@@H](NC(=O)[C@@H](CC(C)C)NC(=O)[C@@H](Cc1c[nH]c2ccccc12)NC(=O)[C@@H](CCCCN)NC(C)=O)C(=O)N[C@H](CCC(N)=O)C(=O)N[C@H](CC(C)C)C(=O)N[C@H](Cc1ccccc1)C(=O)N[C@H](Cc1c[nH]cn1)C(=O)N[C@H](CCCCN)C(=O)N[C@H](CCCCN)C(N)=O [XMP.366P] | – | – | IC50 (toxicity/growth inhibition of peptide) (mouse RAW 264.7 cells): 18.28 ± 2.57 µg/mL |
| CC[C@H](C)[C@H](NC(=O)[C@H](CC(C)C)NC(=O)[C@H](Cc1c[nH]c2ccccc12)NC(=O)[C@H](CCCCN)NC(C)=O)C(=O)N[C@@H](CCC(N)=O)C(=O)N[C@@H](CC(C)C)C(=O)N[C@@H](Cc1ccccc1)C(=O)N[C@@H](Cc1c[nH]cn1)C(=O)N[C@@H](CCCCN)C(=O)N[C@@H](CCCCN)C(N)=O [XMP.373P] | 12.79 ± 0.19 µg/mL | – | IC50 (toxicity/growth inhibition of peptide) (mouse RAW 264.7 cells): >25 µg/mL |
| CC[C@H](C)[C@H](NC(=O)[C@H](C)NC(=O)[C@H](Cc1c[nH]c2ccccc12)NC(=O)[C@@H]1CCCN1)C(=O)N[C@@H](CCC(N)=O)C(=O)N[C@@H](CC(C)C)C(=O)N[C@@H](CCCCN)C(=O)N[C@@H](CCCCN)C(N)=O [XMP.378P] | NA (NA for EC50 means no evidence neutralization of LPS at up to 50 μg/ml) | NA (NA for IC50 means no evidence of decreased RAW cell growth at up to 50 μg/ml) | – |
| CC[C@H](C)[C@H](NC(=O)[C@H](C)NC(=O)[C@H](Cc1c[nH]c2ccccc12)NC(=O)[C@@H]1CCCN1)C(=O)N[C@@H](CCC(N)=O)C(=O)N[C@@H](CC(C)C)C(=O)N[C@@H](CCCCN)C(=O)N[C@@H](CCCCN)C(N)=O [XMP.378] | – | – | C. albicans pmol/30 mm^2 zone [1]: 2,084 pmol/30 mm^2 zone |
| CC[C@H](C)[C@H](NC(=O)[C@H](CC(C)C)NC(=O)[C@H](Cc1c[nH]c2ccccc12)NC(=O)CNC(=O)[C@@H](N)CCCCN)C(=O)N[C@@H](CCC(N)=O)C(=O)N[C@@H](CC(C)C)C(=O)N[C@@H](Cc1ccccc1)C(=O)N[C@@H](Cc1c[nH]cn1)C(=O)N[C@@H](CCCCN)C(=O)N[C@@H](CCCCN)C(N)=O [XMP.389P] | 1.78 ± 0.09 µg/mL | NA (NA for IC50 means no evidence of decreased RAW cell growth at up to 50 μg/ml) | – |
| CC[C@H](C)[C@H](NC(=O)[C@H](CC(C)C)NC(=O)[C@H](Cc1c[nH]c2ccccc12)NC(=O)CNC(=O)[C@@H](NC(=O)[C@@H](N)CCCCN)C(C)C)C(=O)N[C@@H](CCC(N)=O)C(=O)N[C@@H](CC(C)C)C(=O)N[C@@H](Cc1ccccc1)C(=O)N[C@@H](Cc1c[nH]cn1)C(=O)N[C@@H](CCCCN)C(=O)N[C@@H](CCCCN)C(N)=O [XMP.391P] | 1.49 ± 0.02 µg/mL | NA (NA for IC50 means no evidence of decreased RAW cell growth at up to 50 μg/ml) | – |
| CC[C@H](C)[C@H](NC(=O)[C@H](CC(C)C)NC(=O)[C@H](C)NC(=O)CNC(=O)[C@@H](NC(=O)[C@H](CCCCN)NC(=O)[C@H](CO)NC(=O)[C@H](CCCCN)NC(=O)[C@@H]1CCCN1)C(C)C)C(=O)N[C@@H](CCC(N)=O)C(=O)N[C@@H](CC(C)C)C(=O)N[C@@H](Cc1ccccc1)C(=O)N[C@@H](Cc1c[nH]cn1)C(=O)N[C@@H](CCCCN)C(=O)N[C@@H](CCCCN)C(N)=O [XMP.406P] | >50 µg/mL | NA (NA for IC50 means no evidence of decreased RAW cell growth at up to 50 μg/ml) | – |
| CC[C@H](C)[C@H](NC(=O)[C@H](CC(C)C)NC(=O)[C@H](C)NC(=O)CNC(=O)[C@@H](NC(=O)[C@H](CCCCN)NC(=O)[C@H](CO)NC(=O)[C@H](CCCCN)NC(=O)[C@@H]1CCCN1)C(C)C)C(=O)N[C@@H](CCC(N)=O)C(=O)N[C@@H](CC(C)C)C(=O)N[C@@H](Cc1ccccc1)C(=O)N[C@@H](Cc1c[nH]cn1)C(=O)N[C@@H](CCCCN)C(=O)N[C@@H](CCCCN)C(N)=O [XMP.406] | – | – | C. albicans pmol/30 mm^2 zone [1]: 423 pmol/30 mm^2 zone |
| CC[C@H](C)[C@H](NC(=O)[C@H](CC(C)C)NC(=O)[C@H](C)NC(=O)CNC(=O)[C@@H](NC(=O)[C@H](CCCCN)NC(=O)[C@H](CO)NC(=O)[C@H](CCCCN)NC(=O)[C@@H]1CCCN1)C(C)C)C(=O)N[C@@H](CCC(N)=O)C(=O)N[C@@H](CC(C)C)C(=O)N[C@@H](Cc1ccccc1)C(=O)N[C@@H](Cc1c[nH]cn1)C(=O)N[C@@H](CCCCN)C(=O)N[C@@H](CCCCN)C(=O)N[C@@H](CC(=O)O)C(N)=O [XMP.407P] | NA (NA for EC50 means no evidence neutralization of LPS at up to 50 μg/ml) | NA (NA for IC50 means no evidence of decreased RAW cell growth at up to 50 μg/ml) | – |
| CC[C@H](C)[C@H](NC(=O)[C@H](CC(C)C)NC(=O)[C@H](C)NC(=O)CNC(=O)[C@@H](NC(=O)[C@H](CCCCN)NC(=O)[C@H](CO)NC(=O)[C@H](CCCCN)NC(=O)[C@@H]1CCCN1)C(C)C)C(=O)N[C@@H](CCC(N)=O)C(=O)N[C@@H](CC(C)C)C(=O)N[C@@H](Cc1ccccc1)C(=O)N[C@@H](Cc1c[nH]cn1)C(=O)N[C@@H](CCCCN)C(=O)N[C@@H](CCCCN)C(=O)N[C@@H](CC(=O)O)C(N)=O [XMP.407] | – | – | C. albicans pmol/30 mm^2 zone [1]: 1,240 pmol/30 mm^2 zone |
